In patent US11897876B2, “Isoxazolidines as RIPK1 inhibitors and use thereof” (GENZYME CORPORATION, priority 2022, dated 2024):

Target: T1, hRIPK1 (aa 1-375) fusion protein (Homo sapiens, UniProt Q13546)
T1 sequence (Q13546 1-375): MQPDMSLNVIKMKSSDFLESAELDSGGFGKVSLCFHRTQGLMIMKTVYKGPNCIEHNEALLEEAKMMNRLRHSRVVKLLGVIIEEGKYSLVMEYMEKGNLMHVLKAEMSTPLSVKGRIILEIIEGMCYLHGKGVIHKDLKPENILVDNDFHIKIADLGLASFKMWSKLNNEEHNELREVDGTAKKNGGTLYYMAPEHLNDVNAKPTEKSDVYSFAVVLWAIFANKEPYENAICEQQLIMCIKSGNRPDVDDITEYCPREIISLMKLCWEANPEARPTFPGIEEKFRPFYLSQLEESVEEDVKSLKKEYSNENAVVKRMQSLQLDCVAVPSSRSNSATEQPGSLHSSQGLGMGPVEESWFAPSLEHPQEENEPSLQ
Assay: ADP-Glo kinase assay of RIPK1 catalytic activity (autophosphorylation)
Settings: read-out: ADP-Glo IC50; hRIPK1 3.6 μg/ml, ATP 50 μM, 240 min at room temperature

Row | Compound | IC50
1 | O=C(C1CCN(c2nccc(-c3ccccc3)n2)CC1)N1N=CCC1c1ccccc1 (stereo not shown) [Comparator Example A, (3-Phenyl-3,4-dihydropyrazol-2-yl)-[1-(4-phenylpyrimidin-2-yl)-4-piperidyl]methanone, reference compound] | 0.041 µM
2 | Cc1nnc(-c2cc(N3CCC(C(=O)N4N=CC[C@H]4c4ccccc4)CC3)ncn2)o1 [Comparator Example C, [1-[6-(5-Methyl-1,3,4-oxadiazol-2-yl)pyrimidin-4-yl]-4-piperidyl]-[(3S)-3-phenyl-3,4-dihydropyrazol-2-yl]methanone, reference compound] | 0.037 µM
3 | Cc1nnc(-c2cc(N3CCC(C(=O)N4OCC[C@H]4c4ccccc4)CC3)ncn2)o1 [Comparator Example D, [1-[6-(5-Methyl-1,3,4-oxadiazol-2-yl)pyrimidin-4-yl]-4-piperidyl]-[(3S)-3-phenylisoxazolidin-2-yl]methanone, reference compound] | 0.031 µM
4 | Cc1nnc(-c2cc(N3CCC(C(=O)N4OCC[C@H]4c4cc(F)cc(C#N)c4)CC3)ncn2)o1 [Comparator Example E, 3-Fluoro-5-[(3S)-2-[1-[6-(5-methyl-1,3,4-oxadiazol-2-yl)pyrimidin-4-yl]piperidine-4-carbonyl]isoxazolidin-3-yl]benzonitrile, reference compound] | 0.035 µM
5 | Cc1nccn1-c1cc(N2CCC(C(=O)N3OCC[C@H]3c3cc(F)cc(C#N)c3)CC2)ncn1 [Example 1, 3-Fluoro-5-[(3S)-2-[1-[6-(2-methylimidazol-1-yl)pyrimidin-4-yl]piperidine-4-carbonyl]isoxazolidin-3-yl]benzonitrile] | 0.0158 µM
6 | Cc1c(F)cc([C@@H]2CCON2C(=O)C2CCN(c3cc(-n4ccnc4C)ncn3)CC2)cc1C#N [Example 2, 3-Fluoro-2-methyl-5-[(3S)-2-[1-[6-(2-methylimidazol-1-yl)pyrimidin-4-yl]piperidine-4-carbonyl]isoxazolidin-3-yl]benzonitrile] | 0.0121 µM
7 | Cn1nccc1-c1cc(N2CCC(C(=O)N3OCC[C@H]3c3cc(F)cc(F)c3)CC2)ncn1 [Example 4, [(3S)-3-(3,5-Difluorophenyl)isoxazolidin-2-yl]-[1-[6-(2-methylpyrazol-3-yl)pyrimidin-4-yl]-4-piperidyl]methanone] | 0.025 µM
8 | Cn1nccc1-c1cc(N2CCC(C(=O)N3OCC[C@H]3c3cc(F)cc(Cl)c3)CC2)ncn1 [Example 5, [(3S)-3-(3-Chloro-5-fluoro-phenyl)isoxazolidin-2-yl]-[1-[6-(2-methylpyrazol-3-yl)pyrimidin-4-yl]-4-piperidyl]methanone] | 0.013 µM

The next lines start with the values.

Row | IC50 | Compound
9 | 0.0178 µM | Cc1n[nH]cc1-c1cc(N2CCC(C(=O)N3OCC[C@H]3c3cc(F)cc(C#N)c3)CC2)ncn1 [Example 6, 3-Fluoro-5-[(3S)-2-[1-[6-(3-methyl-1H-pyrazol-4-yl)pyrimidin-4-yl]piperidine-4-carbonyl]isoxazolidin-3-yl]benzonitrile]
10 | 0.0041 µM | Cc1nc(C2CC2)cn1-c1cc(N2CCC(C(=O)N3OCC[C@H]3c3cc(F)cc(C#N)c3)CC2)ncn1 [Example 7, 3-[(3S)-2-[1-[6-(4-Cyclopropyl-2-methyl-imidazol-1-yl)pyrimidin-4-yl]piperidine-4-carbonyl]isoxazolidin-3-yl]-5-fluoro-benzonitrile]
11 | 0.0059 µM | Cc1c(F)cc([C@@H]2CCON2C(=O)C2CCN(c3cc(-n4cc(C5CC5)nc4C)ncn3)CC2)cc1C#N [Example 8, 5-[(3S)-2-[1-[6-(4-Cyclopropyl-2-methyl-imidazol-1-yl)pyrimidin-4-yl]piperidine-4-carbonyl]isoxazolidin-3-yl]-3-fluoro-2-methyl-benzonitrile]
12 | 0.0081 µM | Cc1ncn(-c2cc(N3CCC(C(=O)N4OCC[C@H]4c4cc(F)cc(C#N)c4)CC3)ncn2)n1 [Example 10, 3-Fluoro-5-[(3S)-2-[1-[6-(3-methyl-1,2,4-triazol-1-yl)pyrimidin-4-yl]piperidine-4-carbonyl]isoxazolidin-3-yl]benzonitrile]
13 | 0.0099 µM | Cc1ncnn1-c1cc(N2CCC(C(=O)N3OCC[C@H]3c3cc(F)cc(C#N)c3)CC2)ncn1 [Example 11, 3-Fluoro-5-[(3S)-2-[1-[6-(5-methyl-1,2,4-triazol-1-yl)pyrimidin-4-yl]piperidine-4-carbonyl]isoxazolidin-3-yl]benzonitrile]
14 | 0.013 µM | Cn1nncc1-c1cc(N2CCC(C(=O)N3OCC[C@H]3c3cc(F)cc(C#N)c3)CC2)ncn1 [Example 12, 3-Fluoro-5-[(3S)-2-[1-[6-(3-methyltriazol-4-yl)pyrimidin-4-yl]piperidine-4-carbonyl]isoxazolidin-3-yl]benzonitrile]
15 | 0.0149 µM | Cc1nccn1-c1ncnc(N2CCC(C(=O)N3OCC[C@H]3c3cc(F)cc(C#N)c3)CC2)c1F [Example 13, 3-Fluoro-5-[(3S)-2-[1-[5-fluoro-6-(2-methylimidazol-1-yl)pyrimidin-4-yl]piperidine-4-carbonyl]isoxazolidin-3-yl]benzonitrile]
16 | 0.0185 µM | Cc1cnn(-c2ncnc(N3CCC(C(=O)N4OCC[C@H]4c4cc(F)c(C)c(C#N)c4)CC3)c2F)c1 [Example 14, 3-Fluoro-5-[(3S)-2-[1-[5-fluoro-6-(4-methylpyrazol-1-yl)pyrimidin-4-yl]piperidine-4-carbonyl]isoxazolidin-3-yl]-2-methyl-benzonitrile]
